The target in one data set is Recombinant human PARP7 (Homo sapiens, UniProt Q7Z3E1). In words: Inhibitory effect of the compounds on PARP7 enzyme activity (histone-coated plate, Biotin-NAD+, chemiluminescence). The conditions noted are these: read-out: PARP7 IC50.
Data set [1] relates to STAT1 and p-STAT1 proteins in CT26 mouse colon cancer cells. Put plainly: Restoration of the type I interferon signaling pathway in cells (Western blot of STAT1 and p-STAT1). The note with it: CT26 cells, 0.1, 0.3, 1, 3 and 10 µM, 24 hours, Western blot (Figure 1).
A short description of data set [2]: Pharmacokinetic study in mice. The conditions noted are these: for AUC last / Cmax: plasma; for T1/2: plasma half-life; for drug clearance rate (CL(iv)) of RBN-2397 relative to that of the compound: intravenous administration 3 mg/kg; for maximum plasma concentration (Cmax) relative to that of RBN-2397 / plasma exposure relative to that of RBN-2397: oral administration of 10 mg/kg; for F%: oral bioavailability, PO 10mg/kg vs IV 3mg/kg; for AUClast (plasma exposure) relative to that of RBN-2397: tail vein injection of 3 mg/kg.

The chains behind the UniProt entries cited, without tags or fusion partners.
UniProt Q7Z3E1, whole entry: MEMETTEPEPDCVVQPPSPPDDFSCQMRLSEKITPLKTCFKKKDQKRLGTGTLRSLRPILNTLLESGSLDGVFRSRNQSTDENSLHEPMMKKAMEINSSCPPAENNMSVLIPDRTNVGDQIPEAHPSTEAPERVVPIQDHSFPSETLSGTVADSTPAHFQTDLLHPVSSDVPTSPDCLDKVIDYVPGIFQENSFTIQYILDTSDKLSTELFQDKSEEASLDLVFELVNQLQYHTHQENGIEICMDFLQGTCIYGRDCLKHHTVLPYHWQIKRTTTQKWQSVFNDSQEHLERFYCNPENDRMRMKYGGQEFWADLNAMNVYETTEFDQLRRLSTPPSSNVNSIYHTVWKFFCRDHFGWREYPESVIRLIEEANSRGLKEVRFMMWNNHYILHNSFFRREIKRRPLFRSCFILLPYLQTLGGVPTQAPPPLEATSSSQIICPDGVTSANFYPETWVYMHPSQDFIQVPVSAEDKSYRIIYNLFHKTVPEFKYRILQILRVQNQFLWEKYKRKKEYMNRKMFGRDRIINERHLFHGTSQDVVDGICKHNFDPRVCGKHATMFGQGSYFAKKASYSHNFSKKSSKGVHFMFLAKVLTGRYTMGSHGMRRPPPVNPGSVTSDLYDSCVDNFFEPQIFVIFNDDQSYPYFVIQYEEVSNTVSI
UniProt Q9H0J9, whole entry: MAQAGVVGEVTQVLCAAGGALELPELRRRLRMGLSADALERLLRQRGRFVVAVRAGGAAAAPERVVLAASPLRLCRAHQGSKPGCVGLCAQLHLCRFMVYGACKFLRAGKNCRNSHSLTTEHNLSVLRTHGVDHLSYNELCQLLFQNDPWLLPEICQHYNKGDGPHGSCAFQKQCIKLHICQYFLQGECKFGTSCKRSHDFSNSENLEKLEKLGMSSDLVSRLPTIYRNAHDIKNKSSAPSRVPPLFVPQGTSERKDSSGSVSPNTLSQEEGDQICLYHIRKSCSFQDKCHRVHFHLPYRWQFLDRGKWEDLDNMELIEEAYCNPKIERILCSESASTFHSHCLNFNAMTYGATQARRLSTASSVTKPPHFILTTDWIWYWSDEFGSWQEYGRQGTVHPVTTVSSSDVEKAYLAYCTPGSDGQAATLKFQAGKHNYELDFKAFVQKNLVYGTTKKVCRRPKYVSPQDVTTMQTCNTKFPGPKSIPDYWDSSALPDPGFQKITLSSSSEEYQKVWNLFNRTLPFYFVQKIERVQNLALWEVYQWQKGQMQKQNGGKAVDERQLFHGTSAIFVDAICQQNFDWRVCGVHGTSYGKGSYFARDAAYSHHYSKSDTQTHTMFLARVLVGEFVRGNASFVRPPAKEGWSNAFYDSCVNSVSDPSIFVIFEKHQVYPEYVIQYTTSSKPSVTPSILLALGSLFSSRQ
UniProt P09874, whole entry: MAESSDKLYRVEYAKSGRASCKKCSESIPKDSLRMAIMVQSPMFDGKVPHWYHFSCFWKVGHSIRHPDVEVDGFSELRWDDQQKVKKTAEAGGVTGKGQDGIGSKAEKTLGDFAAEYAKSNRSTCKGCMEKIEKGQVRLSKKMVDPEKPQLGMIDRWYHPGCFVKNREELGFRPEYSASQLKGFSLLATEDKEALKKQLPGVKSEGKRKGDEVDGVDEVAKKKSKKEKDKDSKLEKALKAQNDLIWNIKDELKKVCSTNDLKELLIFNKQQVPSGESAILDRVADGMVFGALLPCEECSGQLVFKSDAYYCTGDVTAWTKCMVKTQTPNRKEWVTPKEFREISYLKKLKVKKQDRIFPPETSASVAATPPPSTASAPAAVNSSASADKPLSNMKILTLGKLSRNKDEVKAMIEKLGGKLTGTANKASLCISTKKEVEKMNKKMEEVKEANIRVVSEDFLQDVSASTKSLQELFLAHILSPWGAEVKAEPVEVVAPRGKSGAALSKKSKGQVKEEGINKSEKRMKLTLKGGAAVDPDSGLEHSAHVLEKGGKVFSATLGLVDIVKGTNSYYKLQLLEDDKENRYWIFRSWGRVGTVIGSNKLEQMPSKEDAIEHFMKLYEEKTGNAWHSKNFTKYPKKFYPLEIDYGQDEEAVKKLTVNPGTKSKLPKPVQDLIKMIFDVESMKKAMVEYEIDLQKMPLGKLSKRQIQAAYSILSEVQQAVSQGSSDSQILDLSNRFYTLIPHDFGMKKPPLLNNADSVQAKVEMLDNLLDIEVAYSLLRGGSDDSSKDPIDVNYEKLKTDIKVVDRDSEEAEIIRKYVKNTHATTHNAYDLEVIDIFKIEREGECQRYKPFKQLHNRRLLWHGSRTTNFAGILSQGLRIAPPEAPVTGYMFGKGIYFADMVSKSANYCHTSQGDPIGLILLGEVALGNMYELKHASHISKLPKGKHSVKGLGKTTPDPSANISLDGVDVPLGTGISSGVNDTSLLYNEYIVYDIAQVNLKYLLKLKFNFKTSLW

A further data set deals with recombinant human PARP12 (Homo sapiens, UniProt Q9H0J9). Put plainly: Inhibition of PARP12 enzyme activity (same method as PARP7 except for the enzyme). The conditions noted are these: for PARP 12 IC50/PARP7 IC50: fold selectivity PARP12 relative to PARP7; for IC50: read-out: PARP12 IC50, recombinant human PARP12.
The target in data set [3] is recombinant human PARP1 protein (Homo sapiens, UniProt P09874). Put plainly: Inhibition of PARP1 enzyme activity (histone-coated plate, activated DNA, Biotin-NAD+, chemiluminescence). The conditions noted are these: for PARP1 IC50/PARP7 IC50: fold selectivity PARP1 relative to PARP7; for IC50: read-out: PARP 1 IC50, recombinant human PARP1 protein.

Consider `CC(CONC(=O)C1=CCN(c2ncc(C(F)(F)F)cn2)CC1)c1c[nH]c(=O)c(C(F)(F)F)c1` (stereo not shown), for which the IC50 on Recombinant human PARP7 came out at 8.7 nM.

On to `O=C(NOC(CO)c1c[nH]c(=O)c(C(F)(F)F)c1)C1=CCN(c2ncc(C(F)(F)F)cn2)CC1` (stereo not shown), for which the IC50 at Recombinant human PARP7 turned out to be 5.8 nM.

Take `O=C(NOCc1c[nH]c(=O)c(C(F)(F)F)c1)C1C=CN(c2ncc(C(F)(F)F)cn2)CC1` (stereo not shown): at Recombinant human PARP7, the IC50 came to 16 nM.

As for `C[C@@H](ONC(=O)N1C2CC1CN(c1ncc(C(F)(F)F)cn1)C2)c1c[nH]c(=O)c(C(F)(F)F)c1`, the IC50 at Recombinant human PARP7 is 51 nM.

On to `C[C@@H](ONC(=O)N1C2CCC1CN(c1ncc(C(F)(F)F)cn1)C2)c1c[nH]c(=O)c(C(F)(F)F)c1`, for which the IC50 on Recombinant human PARP7 was found to be 2.1 nM.

For `CCC(ONC(=O)N1CCN(c2ncc(C(F)(F)F)cn2)CC1)c1c[nH]c(=O)c(C(F)(F)F)c1` (racemic), at Recombinant human PARP7, the IC50 was found to be 5.1 nM.

On to `C[C@H](ONC(=O)C1=CCN(c2ccc(C(F)(F)F)cn2)CC1)c1c[nH]c(=O)c(C(F)(F)F)c1`, for which, on Recombinant human PARP7, the half-inhibitory concentration (IC50) amounted to 122 nM.

For `CC(=O)Nc1cnc(N2CCN(C(=O)NO[C@H](C)c3c[nH]c(=O)c(C(F)(F)F)c3)CC2)nc1`, the IC50 at Recombinant human PARP7 came out at 16 nM.

For `C[C@@H](ONC(=O)C1=CCN(c2ncc(-c3ccc(F)cc3)cn2)CC1)c1c[nH]c(=O)c(C(F)(F)F)c1`, the IC50 on Recombinant human PARP7 was found to be 3 nM.

Regarding `[2H][C@](C)(ONC(=O)C1=CCN(c2ncc(C(F)(F)F)cn2)CC1)c1c[nH]c(=O)c(C(F)(F)F)c1`, the IC50 on Recombinant human PARP7 amounted to 1.3 nM.

For the molecule `C[C@@H](ONC(=O)C1=CCN(c2ncc(Br)cn2)CC1)c1c[nH]c(=O)c(C(F)(F)F)c1`, the 50% inhibitory concentration (IC50) at Recombinant human PARP7 turned out to be 1.4 nM.

Take `C[C@H](ONC(=O)C1=CCN(c2ncc(C3CC3)cn2)CC1)c1c[nH]c(=O)c(C(F)(F)F)c1`: at Recombinant human PARP7, the IC50 came to 83 nM.

With `CC1=CN(c2ncc(C(F)(F)F)cn2)CCC1C(=O)NO[C@H](C)c1c[nH]c(=O)c(C(F)(F)F)c1` (stereo partly shown), on Recombinant human PARP7, the IC50 was 31 nM.

As to `C[C@@H](ONC(=O)N1CCN(c2ncc(C3CC3)cn2)CC1)c1c[nH]c(=O)c(C(F)(F)F)c1`, at Recombinant human PARP7, the IC50 amounted to 1.3 nM.

As for `CC1=C(C(=O)NO[C@H](C)c2c[nH]c(=O)c(C(F)(F)F)c2)CCN(c2ncc(C(F)(F)F)cn2)C1`, the IC50 on Recombinant human PARP7 came to 26 nM.

On to `C[C@@H](ONC(=O)C1=CCN(c2ncc(C#N)cn2)CC1)c1c[nH]c(=O)c(C(F)(F)F)c1`, for which, on Recombinant human PARP7, the IC50 came to 3.2 nM.

In the case of `C[C@@H](ONC(=O)C1=CCN(c2ncc3ccccc3n2)CC1)c1c[nH]c(=O)c(C(F)(F)F)c1`, the IC50 at Recombinant human PARP7 was 1.2 nM.

For `C[C@@H](ONC(=O)N1CCN(c2ncc(C(F)(F)F)c3[nH]cnc23)CC1)c1c[nH]c(=O)c(C(F)(F)F)c1`, on Recombinant human PARP7, the IC50 came out at 0.55 nM.

In the case of `CC(=O)Nc1cnc(N2CC=C(C(=O)NO[C@H](C)c3c[nH]c(=O)c(C(F)(F)F)c3)CC2)nc1`, on Recombinant human PARP7, the IC50 is 24 nM.

For the molecule `C[C@H](ONC(=O)N1CCN(c2ncc(C(F)(F)F)cn2)CC1)c1c[nH]c(=O)c(C(F)(F)F)c1`, the IC50 at Recombinant human PARP7 was 10.2 nM.

Take `C[C@H](ONC(=O)C1=CCN(c2ncc(C(F)(F)F)cn2)CC1)c1c[nH]c(=O)c(C(F)(F)F)c1`: the IC50 at Recombinant human PARP7 was found to be 18 nM.

Consider `O=C(NOCc1c[nH]c(=O)c(C(F)(F)F)c1)C1=CCN(c2ncc(C(F)(F)F)cn2)CC1`, for which the IC50 at Recombinant human PARP7 was 6.9 nM.

Take `CC[C@H](ONC(=O)N1CCN(c2ncc(C(F)(F)F)cn2)CC1)c1c[nH]c(=O)c(C(F)(F)F)c1` (single isomer, unassigned): the IC50 at Recombinant human PARP7 amounted to 25 nM.

Regarding `C[C@@H](ONC(=O)N1CCN(c2ncc(C(F)(F)F)cn2)CC1)c1c[nH]c(=O)c(C(F)(F)F)c1`, the “expression of STAT1 and p-STAT1 proteins” value in data set [1] is reported as “dose-dependently increased”. In data set [2] (IV 3mg/kg), the “CL(iv)” value worked out at 8.12 mL/min/kg, the “plasma half-life (T1/2) relative to that of RBN-2397” value amounted to 8.2 times, the AUC last came out at 6037 ng·h/mL and the T1/2 worked out at 1.63 h. In data set [2] (PO 10mg/kg), this molecule came in with an AUC last of 19377 ng·h/mL and a Cmax of 7527 ng/mL. For the same molecule, in data set [2], the “drug clearance rate (CL(iv)) of RBN-2397 relative to that of the compound” value is given as 8.4 times, the “maximum plasma concentration (Cmax) relative to that of RBN-2397” value is reported as 11.0 times, the “plasma exposure relative to that of RBN-2397” value is recorded as “approximately 33.3 times” and the F% stood at 94.3%. Also, the “AUClast (plasma exposure) relative to that of RBN-2397” value in data set [2] is listed as “approximately 8.2 times”. Also, at recombinant human PARP12, the “PARP 12 IC50/PARP7 IC50” value is on record as 53.3 fold and the 50% inhibitory concentration (IC50) was 80 nM. Further, in data set [3], the “PARP1 IC50/PARP7 IC50” value was found to be 300.7 fold and the IC50 is 451 nM. The half-inhibitory concentration (IC50) on Recombinant human PARP7 stood at 1.5 nM.

Take `C[C@@H](ONC(=O)N1CCN(c2ncc(C(F)(F)F)cn2)C[C@@H]1C)c1c[nH]c(=O)c(C(F)(F)F)c1`: the IC50 on Recombinant human PARP7 worked out at 0.79 nM.

As for `CC[C@@H](ONC(=O)C1=CCN(c2ncc(C(F)(F)F)cn2)CC1)c1c[nH]c(=O)c(C(F)(F)F)c1`, the IC50 on Recombinant human PARP7 was 4.1 nM.

As to `[2H][C@@](C)(ONC(=O)C1=CCN(c2ncc(C(F)(F)F)cn2)CC1)c1c[nH]c(=O)c(C(F)(F)F)c1`, the IC50 on Recombinant human PARP7 is 14 nM.

Regarding `C[C@@H](ONC(=O)C1=CCN(c2ncc(C3CC3)cn2)CC1)c1c[nH]c(=O)c(C(F)(F)F)c1`, the IC50 on Recombinant human PARP7 was found to be 1.6 nM.

On to `C[C@@H](ONC(=O)N1CCN(c2ncc(C(F)(F)F)c3cc[nH]c23)CC1)c1c[nH]c(=O)c(C(F)(F)F)c1`, for which the IC50 at Recombinant human PARP7 worked out at 1 nM.

Regarding `C[C@@H](ONC(=O)C1=CCN(c2ccc(C(F)(F)F)cn2)CC1)c1c[nH]c(=O)c(C(F)(F)F)c1`, the IC50 on Recombinant human PARP7 turned out to be 1.1 nM.

Consider `C[C@@H](ONC(=O)C1=CCN(c2ncc(C(F)(F)F)c3[nH]cnc23)CC1)c1c[nH]c(=O)c(C(F)(F)F)c1`, for which the IC50 on Recombinant human PARP7 came out at 0.64 nM.

Consider `C[C@H](ONC(=O)N1CCN(c2ncc(C(F)(F)F)c3cc[nH]c23)CC1)c1c[nH]c(=O)c(C(F)(F)F)c1`, for which, at Recombinant human PARP7, the IC50 came to 4.6 nM.

For the molecule `CC[C@H](ONC(=O)C1=CCN(c2ncc(C(F)(F)F)cn2)CC1)c1c[nH]c(=O)c(C(F)(F)F)c1`, the IC50 on Recombinant human PARP7 came to 84 nM.

As for `C[C@@H]1CN(c2ncc(C(F)(F)F)cn2)CCN1C(=O)NO[C@H](C)c1c[nH]c(=O)c(C(F)(F)F)c1`, the IC50 on Recombinant human PARP7 was found to be 0.72 nM.

In the case of `O=C(NOCc1c[nH]c(=O)c(C(F)(F)F)c1)N1CCN(c2ncc(C(F)(F)F)cn2)CC1`, the half-maximal inhibitory concentration (IC50) at Recombinant human PARP7 is 4.1 nM.

`CCC(ONC(=O)C1=CCN(c2ncc(C(F)(F)F)cn2)CC1)c1c[nH]c(=O)c(C(F)(F)F)c1` (racemic): at Recombinant human PARP7, the IC50 was determined as 6.6 nM.

Regarding `CC[C@@H](ONC(=O)N1CCN(c2ncc(C(F)(F)F)cn2)CC1)c1c[nH]c(=O)c(C(F)(F)F)c1` (single isomer, unassigned), on Recombinant human PARP7, the IC50 was found to be 1.1 nM.

Consider `C[C@@H](ONC(=O)C1=CCN(c2ncc(C(F)(F)F)cn2)CC1)c1c[nH]c(=O)c(C(F)(F)F)c1`, for which, in data set [1], the “expression of STAT1 and p-STAT1 proteins” value is “dose-dependently increased”. In data set [2] (IV 3mg/kg), the “CL(iv)” value is 15.3 mL/min/kg, the “plasma half-life (T1/2) relative to that of RBN-2397” value came to 5.4 times, the AUC last is 3224 ng·h/mL and the T1/2 came out at 1.08 h. In data set [2] (PO 10mg/kg), this molecule showed an AUC last of 9388 ng·h/mL and a Cmax of 5163 ng/mL. In data set [2], the “drug clearance rate (CL(iv)) of RBN-2397 relative to that of the compound” value was 4.5 times, the “maximum plasma concentration (Cmax) relative to that of RBN-2397” value turned out to be 7.6 times, the “plasma exposure relative to that of RBN-2397” value is 16.1 times and the F% was found to be 88.4%. Moreover, the “AUClast (plasma exposure) relative to that of RBN-2397” value in data set [2] is given as “approximately 4.4 times”. Besides, at recombinant human PARP12, the “PARP 12 IC50/PARP7 IC50” value stood at 120.5 fold and the IC50 is 229 nM. Moreover, in data set [3], the “PARP1 IC50/PARP7 IC50” value is reported as 421.6 fold and the IC50 is 801 nM. Besides, on Recombinant human PARP7, the IC50 was determined as 1.9 nM.

Values taken from patent EP4834901A1, “PARP7 INHIBITOR AND USE THEREOF” (dated 2026).
